Results taken from US20160256561A1, “PYRROLOBENZODIAZEPINE-ANTIBODY CONJUGATES” (priority 2013, published 2016).

Columns and labels:
Her2(+) BT-474 cells = test system: Her2(+) BT-474 cells
Method: Cell culture medium was RPMI 1640 supplemented with L-Glutamine and 10% FBS. Cells were grown at 37° C., 5% CO2, in a humidified incubator.
The cell suspension was diluted to the required seeding density (generally 10^5/ml) and dispensed into 96-well flat bottomed plates. For Alamar blue assay, 100 μl/well was dispensed in black-well plates. For MTS assay, 50 μl/well was dispensed in clear-well plates. A stock solution (1 ml) of ADC (20 μg/ml) was made by dilution of filter-sterile ADC into cell culture medium. A set of 8×10-fold dilutions of stock ADC were made in a 24 well plate by serial transfer of 100 μl onto 900 μl of cell culture medium. Each ADC dilution (100 μl/well for Alamar blue, 50 μl/well for MTS) was dispensed into 4 replicate wells of the 96-well plate, containing cell suspension. Control wells received the same volume of culture medium only.

MDA-MB-468 cells = experiment: In vitro cytotoxicity of ADCs, Alamar blue assay, Her2-negative control; type: cell-based; conditions: 5 days incubation

Substance | cytotoxicity against BT-474 cells (Her2(+) BT-474 cells) | EC50 MDAMB468 (MDA-MB-468 cells) [µg/mL]
Trastuzumab-C | significant cytotoxicity | 0.6510
Trastuzumab-D | significant cytotoxicity | 0.999
